Binding of CDR-mutated scFvs to a peptide of the spike HR2 region

Values reported by Engelhart et al. 2022, doi:10.1038/s41597-022-01779-4 (FLAb copy).

Target: peptide PDVDLGDISGINAS, taken from heptad repeat 2 (HR2) of SARS-CoV-2 spike.

Ab-95 is the parent antibody, in scFv form: VH, then a (GGGGS)3 linker, then VL. The heavy chain is unchanged in all variants.
VH: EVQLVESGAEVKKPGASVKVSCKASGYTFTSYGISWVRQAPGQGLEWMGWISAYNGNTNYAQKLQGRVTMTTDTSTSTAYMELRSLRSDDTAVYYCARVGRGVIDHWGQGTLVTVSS
VL: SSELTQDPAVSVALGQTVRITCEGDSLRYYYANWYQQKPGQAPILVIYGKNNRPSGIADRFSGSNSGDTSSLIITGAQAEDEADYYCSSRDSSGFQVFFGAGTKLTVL

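Phage display of a naive human antibody library on the peptide gave the parent. The library (AAYL52) carries one to three amino acid substitutions per variant, with no insertions or deletions. The assay is AlphaSeq: two haploid yeast populations carry antibody and antigen on their surface. After mating in shaken culture at 30 °C for 16 h, diploids were selected and their barcode pairs sequenced. A regression on co-assayed BCL2-family reference pairs converts the normalised counts of each replicate to an apparent Kd. Mating was done three times.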

Changes read parent residue, position, new residue, counted from the first residue of the VL shown.
Numbers give log10(Kd / nM), so 0 is 1 nM and 3 is 1 µM. Smaller is tighter.
Replicates are averaged; those with no signal do not enter the mean.
"ND" marks a missing value. The strain was present, yet no cells mated with the target were sequenced in that replicate, which points to weak or no binding.
Entries are sorted by rising average, undetected variants last.
Nonspecific signal, from three strains lacking the peptide, appeared in 28% of pairings of library AAYL52, centred on 3.91 (5% of these signals below 2.90); values are not corrected for it. Also given: how often the same scFv was detected with the empty control strains, with their mean in brackets.

changes,"log10 Kd, replicates","log10 Kd (nM), mean",empty controls
Y29E Y30Q,0.65 0.69 0.13,0.49,4 of 9 (4.58)
Y31D N52S F95Y,1.32 1.11 0.73,1.05,5 of 9 (4.65)
D25M R28N Y31A,1.71 1.34 1.30,1.45,3 of 9 (4.07)
Y29G Y30P F98H,1.86 1.77 1.20,1.61,4 of 9 (4.77)
Y31E D91P V97H,1.97 1.85 1.12,1.64,3 of 9 (3.44)
N51D N52S,1.75 1.92 1.63,1.77,5 of 9 (4.24)
N52I S93P F95V,2.28 2.32 1.86,2.15,5 of 9 (4.30)
Y30V Y31P P54C,2.41 2.17 1.94,2.18,2 of 9 (3.91)
R90A F95I,2.29 2.74 2.58,2.54,2 of 9 (3.22)
N52M S89D S92Q,2.52 2.57 2.58,2.56,4 of 9 (4.50)
D25Y A32H S55Y,ND 2.78 ND,2.78,1 of 9 (5.17)
Y30T K50G G94Y,3.14 2.99 2.60,2.91,4 of 9 (4.09)
S26T Y31E R53L,2.90 3.13 2.72,2.92,4 of 9 (4.44)
L27M S55N G94D,ND ND 2.92,2.92,2 of 9 (3.16)
S26Y G94K,ND 3.18 2.97,3.07,1 of 9 (3.62)
R53I P54G F98M,3.99 3.28 2.32,3.20,3 of 9 (3.33)
P54V R90V D91T,ND 2.71 3.71,3.21,0 of 9
S26H R28A K50F,3.34 3.03 3.44,3.27,4 of 9 (4.40)
N52L S55Y F95N,3.84 2.70 ND,3.27,0 of 9
L27A R90K S92V,3.41 ND 3.27,3.34,4 of 9 (3.96)
G24R D25Y N33S,3.52 ND ND,3.52,2 of 9 (4.01)
Y30W Y31L V97G,3.70 3.25 3.74,3.56,0 of 9
Y31I G94H F95D,3.57 ND ND,3.57,4 of 9 (3.97)
G49M K50W,ND 3.71 ND,3.71,6 of 9 (4.07)
G24S S88C F98M,3.92 3.04 4.48,3.81,2 of 9 (4.32)
G49C R53V S93L,4.21 4.27 3.22,3.90,5 of 9 (3.57)
Y31K S88R F98S,4.83 4.31 2.58,3.91,3 of 9 (3.58)
A32L V97Q,ND ND 3.92,3.92,4 of 9 (4.19)
A32Q G49R F95H,3.97 3.88 3.95,3.93,4 of 9 (4.26)
D25K R53N S88N,3.54 4.42 ND,3.98,1 of 9 (3.35)
K50I S89P S92D,5.20 ND 2.88,4.04,3 of 9 (3.78)
L27Y D91G F98V,2.99 5.12 ND,4.06,1 of 9 (2.48)
G24T S88Y Q96M,4.03 ND 4.16,4.09,2 of 9 (3.74)
G49F R53Y S92P,4.13 ND ND,4.13,5 of 9 (4.00)
G24L D91P F98D,ND 4.06 4.28,4.17,3 of 9 (4.18)
P54K S92L Q96F,ND 4.21 ND,4.21,0 of 9
N33E S92V,2.99 5.45 ND,4.22,5 of 9 (4.58)
Y31V N52P S92Y,3.77 4.68 ND,4.23,5 of 9 (4.21)
Y29E G49S S55G,3.18 5.54 ND,4.36,0 of 9
L27Y D91A S93F,4.47 4.31 ND,4.39,5 of 9 (3.88)
L27A N51W D91Q,4.17 5.40 3.63,4.40,5 of 9 (4.14)
G49V S89V F98Y,5.53 3.25 4.75,4.51,5 of 9 (4.04)
G49F N52I F95N,5.18 3.88 ND,4.53,1 of 9 (3.27)
A32M N52Q F98N,ND 4.83 ND,4.83,0 of 9
E23W S26T R53F,ND 5.24 ND,5.24,2 of 9 (4.28)
K50C P54V S55L,5.45 ND ND,5.45,4 of 9 (3.42)
Y29E R53D S89H,ND 6.03 ND,6.03,1 of 9 (3.07)
G24T R53N,ND ND ND,ND,1 of 9 (2.91)
L27H F95I V97T,ND ND ND,ND,0 of 9
Y30C G49F P54F,ND ND ND,ND,3 of 9 (3.78)
R90P S93R F95N,ND ND ND,ND,0 of 9
P54N F95H Q96G,ND ND ND,ND,1 of 9 (3.38)

Again, the first 5 entries without any signal:

changes,"log10 Kd, replicates","log10 Kd (nM), mean",empty controls
G24T R53N,ND ND ND,ND,1 of 9 (2.91)
L27H F95I V97T,ND ND ND,ND,0 of 9
Y30C G49F P54F,ND ND ND,ND,3 of 9 (3.78)
R90P S93R F95N,ND ND ND,ND,0 of 9
P54N F95H Q96G,ND ND ND,ND,1 of 9 (3.38)